An excerpt weighted towards active compounds, which were near 2.8% of everything screened.
esBAF inh: inhibitors of esBAF chromatin remodeling in mouse ES cells. AID 602393. reporter increase, % at 12.5 µM. 2% of 350,000 active. Bmi1-luciferase knock-in reporter, 24 h; 100% = twice the neutral-well signal; in the data active = activation above about 40%; inconclusive = no clear call, values can overlap the other calls;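 note: a rise in the Bmi1 reporter signal indicates esBAF inhibition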
PglD DTNB: PglD (C. jejuni) enzyme inhibition. inhibition, % at 12.5 µM. 0.098% of 360,000 active. purified PglD enzyme, DTNB colorimetric CoA detection; in the data active = inhibition above about 16%, passing the limit was not always enough; inconclusive = no clear call, values can overlap the other calls
Yeast UUG start: yeast start codon fidelity modulation. S. cerevisiae UUG-firefly luciferase reporter, luminescence/redox ratio. activity score, % at 18.7 µM. 0.13% of 350,000 active;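 active means replicate mean at a twofold rise or more, about +100% in these data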;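 further: firefly luciferase made from a UUG start codon reports start codon fidelity; reporter light over untreated wells divided by growth signal over untreated wells; some hits fall short of that in this replicate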
E-selectin induc: induces E-selectin expression in human endothelial cells; P16581; HUVEC E-selectin immunofluorescence imaging; normalized: neutral wells 0, TNF-alpha wells 100; activation, % at 7.58 µM; 0.37% of 260,000 active; AID 686992;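 active = mean E-selectin-positive cell signal at least 10% of the positive control, reached in at least 60% of replicates, without over 20% cell loss; inconclusive = no rule given, readout overlaps actives, possibly toxicity-flagged; inactive = the rest, including those meeting only one limit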
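Test system: HUVEC | Signal: Immunofluorescence imaging | Read-out: Percent E-selectin-positive cells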
C2C12 statin: suppressors of simvastatin-induced myotoxicity in C2C12 myotubes | ATP luminescence, 48 h; scaled: DMSO 0, geranylgeraniol control 100 | rescue of ATP level, % at 7.49 µM | 0.78% of 330,000 active | AID 602340;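 active = mean ATP rescue above about 67%, or every replicate alone reaching that limit, limit read from the data, passing the limit was not always enough; inconclusive = no clear call, values can overlap the other calls; inactive = mean under the limit and some replicate under it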;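 note: myotubes were challenged with 10 µM simvastatin during compound exposure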
PGC1a acetyl inh: PGC1a acetylation modulation, inhibitor mode | U2OS PGC1a acetylation, AlphaScreen anti-acetyl-lysine; with virally co-expressed GCN5 acetyltransferase | inhibition, % at 15.6 µM | 0.17% of 350,000 active;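 active = every replicate shows inhibition of at least 40%; inconclusive = mean inhibition at least 40% but some replicate below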
A number is an active result; - = inactive; ? = inconclusive; . = no result.

SMILES	esBAF inh	PglD DTNB	Yeast UUG start	E-selectin induc	C2C12 statin	PGC1a acetyl inh
OC(c1ccc(F)c(F)c1)c1nc(-c2ccc3ccccc3c2)cs1 (stereo not drawn)	68	-	-	-	?	.
COc1ccc(-c2csc(C(NC(C)=O)c3cccc(OC)c3)n2)cc1 (stereo not drawn)	-	-	-	-	-	-
COc1ccc(-c2csc(C(NC(C)=O)c3cccc(F)c3)n2)cc1 (stereo not drawn)	-	-	-	-	76	-
OC(c1ccc(F)cc1)c1nc(-c2cc3ccccc3o2)cs1 (stereo not drawn)	70	-	-	-	-	-
OC(c1ccc(F)cc1)c1nc(-c2cnc3ccccc3c2)cs1 (stereo not drawn)	48	-	-	-	-	-
COc1ccc(S(=O)(=O)N[C@@H]2CC[C@H](CC(=O)N3CCN(c4ccccc4)CC3)O[C@H]2CO)cc1	-	-	-	-	-	-
OC(c1cccc(Cl)c1)c1nc(-c2cnc3ccccc3c2)cs1 (stereo not drawn)	-	-	-	-	-	-
COc1ccc(C(O)c2nc(-c3cnc4ccccc4c3)cs2)cc1 (stereo not drawn)	49	-	-	-	-	-
COCC(=O)N1[C@H](C#N)[C@@H](c2ccc(-c3cccc(F)c3)cc2)[C@@H]1CO	-	-	-	-	-	-
O=C(C[C@@H]1CC[C@H]2[C@@H](COC[C@@H](O)CN2Cc2cccc(F)c2)O1)NCC1CCCCC1	-	-	-	-	-	-
COc1ccc(-c2coc3cc(O[C@@H]4O[C@H](CO)[C@@H](O)[C@H](O)[C@H]4O)ccc3c2=O)cc1	64	-	-	-	-	.
O=c1c(-c2ccc3c(c2)OCCO3)coc2cc(OC3OC(CO)C(O)C(O)C3O)ccc12 (stereo not drawn)	-	-	-	-	.	-
Cc1cc(=O)oc2c(C)c(OC(C)C(=O)NCC3CCC(C(=O)O)CC3)ccc12 (stereo not drawn)	-	-	-	.	-	-
CC(Oc1cc2oc(=O)c3c(c2cc1Cl)CCCC3)C(=O)NCC1CCC(C(=O)O)CC1 (stereo not drawn)	-	-	-	87	-	-
Cc1c(OC(C)C(=O)NCC2CCC(C(=O)O)CC2)ccc2c3c(c(=O)oc12)CCCC3 (stereo not drawn)	-	-	-	.	95	-
CC(Oc1cc2oc(=O)c3c(c2cc1Cl)CCC3)C(=O)NCC1CCC(C(=O)O)CC1 (stereo not drawn)	-	-	-	.	-	-
C[C@@H]1CN([C@@H](C)CO)C(=O)c2cc(NS(C)(=O)=O)ccc2O[C@@H](C)CCCCO[C@H]1CN(C)Cc1ccccc1	-	.	.	-	-	-
COC(=O)c1ccccc1NC(=O)C12CC3CC(C1)CC(n1cnc(Cl)n1)(C3)C2	-	-	-	-	-	-
CCOC(=O)c1nn(C23CC4CC(CC(C4)C2)C3)c2c1C(=O)N(c1ccc(C)cc1)C2=O	-	.	.	.	121	-
COC(=O)c1nn(C23CC4CC(CC(C4)C2)C3)c2c1C(=O)N(c1ccc(Br)cc1)C2=O	-	-	-	.	68	-
COc1ccc(NC(=O)N(C)C[C@H]2OCCCC[C@H](C)Oc3ccc(NS(=O)(=O)c4ccc(Cl)cc4)cc3C(=O)N([C@H](C)CO)C[C@@H]2C)cc1	-	-	-	-	.	-
Cc1cccc2c1cnn2C(=O)Nc1ccc(Br)cc1F	-	-	-	-	99	-
C[C@@H]1CN([C@@H](C)CO)C(=O)c2cc(-c3cncnc3)cnc2O[C@H]1CN(C)C(=O)Cc1ccccc1	-	-	-	-	-	-
CCOC(=O)Cc1nnc(NC(=O)COc2ccc(C)cc2)s1	-	-	-	.	-	-
CCOC(=O)Cc1nnc(NC(=O)COc2ccc(OC)cc2)s1	-	-	-	.	130	-
SMILES	esBAF inh	PglD DTNB	Yeast UUG start	E-selectin induc	C2C12 statin	PGC1a acetyl inh
CN1CCN(C(=O)C[C@H]2CC[C@@H]3[C@H](COc4ccc(NC(=O)C5CC5)cc4C(=O)N3C)O2)CC1	-	-	-	-	-	-
O=C(Nc1ccc(NC(=O)c2ccccc2F)cc1)c1cccs1	74	-	-	-	-	-
O=C(Nc1ccc(Cl)cc1)c1cccs1	52	-	-	.	-	-
O=C(NC(=S)Nc1ccccc1)c1cccs1	78	-	-	-	-	-
CC1(c2ccc(NC(=O)c3ccccc3F)cc2)CC1(Cl)Cl (stereo not drawn)	63	-	-	-	-	.
C[C@@H]1CCCCO[C@@H](CN(C)C(=O)Cc2ccccc2)[C@@H](C)CN([C@H](C)CO)C(=O)c2cc(NC(=O)NC3CCCCC3)ccc2O1	-	-	-	-	.	-
CCCn1cnc2cc(NC(=O)c3cccs3)ccc21	55	-	-	-	-	-
Cc1ccc(NC(=S)NC(=O)c2cccs2)cc1F	81	-	-	-	-	-
CCCn1cnc2cc(NC(=O)c3ccco3)ccc21	-	-	-	-	-	.
O=C(Nc1ccc(NC(=O)c2cccs2)cc1)c1cccs1	53	-	-	.	-	-
O=C(C[C@@H]1C[C@@H]2c3cc(NC(=O)Cc4ccncc4)ccc3O[C@@H]2[C@@H](CO)O1)NCc1cccnc1	-	-	-	-	-	-
C[C@@H]1CN([C@H](C)CO)C(=O)c2cc(NC(=O)CCCN(C)C)ccc2O[C@@H](C)CCCCO[C@H]1CN(C)S(=O)(=O)c1cccs1	.	.	.	-	.	-
COc1ccc(-c2nc(N)n[nH]2)cc1	-	-	-	.	-	-
COc1cc(OC)cc(-c2nc(N)n[nH]2)c1	-	-	-	.	106	-
COCC#Cc1cnc2c(c1)C(=O)N([C@@H](C)CO)C[C@@H](C)[C@H](CN(C)C)O2	-	-	-	-	-	-
C[C@@H]1CN([C@H](C)CO)C(=O)c2cccc(NC(=O)C3CCCCC3)c2O[C@H]1CN(C)C(=O)Nc1ccc(C(F)(F)F)cc1	-	-	-	-	-	-
N/C(=N\OC(=O)c1cccc2ccccc12)c1cccc([N+](=O)[O-])c1	-	-	-	.	-	-
N/C(=N\OC(=O)c1ccc(Cl)cc1Cl)c1cccnc1	-	.	.	.	-	-
N/C(=N\OC(=O)c1ccc(Cl)cc1)c1cccnc1	68	-	-	.	-	-
N/C(=N\OC(=O)c1cccc2ccccc12)c1cccnc1	44	.	.	-	-	-
Cc1cccc(/C(N)=N/OC(=O)c2cccc3ccccc23)c1	49	-	-	.	-	.
CC(=O)N(C)C[C@@H]1Oc2ncc(C#C[C@H](C)O)cc2C(=O)N([C@@H](C)CO)C[C@@H]1C	-	-	-	-	-	-
O=C(COC(=O)COc1ccc(Cl)cc1Br)NCCC1=CCCCC1	-	-	-	29	-	.
COc1ccccc1CNC(=O)C[C@@H]1C[C@H]2c3cc(NC(=O)NC4CCCC4)ccc3O[C@H]2[C@@H](CO)O1	-	-	-	-	-	-

Compound activity as filed in PubChem BioAssay.
